For three compounds, Activity results are on record in ChEMBL document CHEMBL4627384, “l-Thyroxin and the Nonclassical Thyroid Hormone TETRAC Are Potent Activators of PPARγ” (J Med Chem, 2020).

Protein sequences, listed by entry. Tags and fused reporters are not part of them. Lines headed by an entry give the natural chain unless they say otherwise; changes in a name come on top.
UniProt P37238, whole entry: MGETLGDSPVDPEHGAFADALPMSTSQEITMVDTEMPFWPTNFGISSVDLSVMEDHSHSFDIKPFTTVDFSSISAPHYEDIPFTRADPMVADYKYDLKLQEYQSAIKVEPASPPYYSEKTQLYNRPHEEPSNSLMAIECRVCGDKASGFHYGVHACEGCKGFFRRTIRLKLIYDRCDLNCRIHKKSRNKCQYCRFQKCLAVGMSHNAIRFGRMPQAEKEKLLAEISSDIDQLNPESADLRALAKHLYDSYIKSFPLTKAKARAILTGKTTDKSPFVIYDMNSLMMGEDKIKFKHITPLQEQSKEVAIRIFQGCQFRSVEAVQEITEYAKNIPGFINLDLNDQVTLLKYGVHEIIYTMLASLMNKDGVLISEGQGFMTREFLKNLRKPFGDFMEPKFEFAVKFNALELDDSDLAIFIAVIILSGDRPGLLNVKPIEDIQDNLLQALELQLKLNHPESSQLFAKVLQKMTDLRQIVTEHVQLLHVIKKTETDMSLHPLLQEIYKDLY
UniProt P08659, whole entry: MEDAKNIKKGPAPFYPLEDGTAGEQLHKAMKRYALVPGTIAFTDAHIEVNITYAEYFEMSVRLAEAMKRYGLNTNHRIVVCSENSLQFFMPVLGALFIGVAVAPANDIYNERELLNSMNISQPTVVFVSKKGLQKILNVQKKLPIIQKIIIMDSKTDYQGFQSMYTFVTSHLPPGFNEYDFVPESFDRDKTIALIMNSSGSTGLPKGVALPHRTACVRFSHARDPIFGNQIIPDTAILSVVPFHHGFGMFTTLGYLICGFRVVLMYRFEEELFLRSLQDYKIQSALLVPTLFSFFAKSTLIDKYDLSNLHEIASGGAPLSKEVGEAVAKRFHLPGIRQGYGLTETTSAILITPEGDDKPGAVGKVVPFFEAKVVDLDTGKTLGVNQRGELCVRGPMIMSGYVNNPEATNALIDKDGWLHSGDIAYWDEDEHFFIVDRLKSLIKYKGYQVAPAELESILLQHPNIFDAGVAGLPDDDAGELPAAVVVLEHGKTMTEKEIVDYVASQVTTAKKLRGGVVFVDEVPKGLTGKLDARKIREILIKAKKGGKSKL
UniProt P37231: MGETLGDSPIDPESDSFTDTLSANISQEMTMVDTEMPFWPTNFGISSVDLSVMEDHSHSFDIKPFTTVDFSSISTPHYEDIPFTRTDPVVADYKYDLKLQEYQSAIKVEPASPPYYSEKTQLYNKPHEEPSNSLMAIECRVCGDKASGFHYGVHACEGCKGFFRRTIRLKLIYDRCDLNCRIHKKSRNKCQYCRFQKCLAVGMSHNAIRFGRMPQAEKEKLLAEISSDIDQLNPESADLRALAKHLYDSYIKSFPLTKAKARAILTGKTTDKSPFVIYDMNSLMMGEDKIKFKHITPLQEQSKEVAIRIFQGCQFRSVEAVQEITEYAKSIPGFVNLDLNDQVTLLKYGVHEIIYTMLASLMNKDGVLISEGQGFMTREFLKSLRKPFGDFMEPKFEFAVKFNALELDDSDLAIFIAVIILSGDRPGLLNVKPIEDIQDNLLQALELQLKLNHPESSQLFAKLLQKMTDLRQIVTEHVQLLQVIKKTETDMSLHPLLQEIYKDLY

Each structure is given as a SMILES string. Active and inactive are the calls of the source. No cut-off for these calls is given here.

For test [1], the target named is Peroxisome proliferator-activated receptor gamma (Mus musculus) (UniProt P37238). Description: In vivo agonist activity at PPARgamma in RjOrl:Swiss CD-1 mouse assessed as induction of CD36 mRNA expression in liver at 10 mg/kg, po administered as single dose measured after 8 hrs by qRT-PCR analysis. Format: functional, organism-based. For orientation: In qPCR the cycle at which signal appears reflects the starting amount.

Test [2] shares this target. In words: In vivo agonist activity at PPARgamma in RjOrl:Swiss CD-1 mouse assessed as induction of CD36 mRNA expression in liver at 10 mg/kg, po administered as single dose measured after 24 hrs by qRT-PCR analysis. Format: functional, organism-based.
Test [3] shares this target. Description: In vivo agonist activity at PPARgamma in RjOrl:Swiss CD-1 mouse assessed as induction of CD36 mRNA expression in fat tissue at 10 mg/kg, po administered as single dose measured after 8 hrs by qRT-PCR analysis. The test is classed as functional, organism-based.
The target is the same in test [4]. Description: In vivo agonist activity at PPARgamma in RjOrl:Swiss CD-1 mouse assessed as induction of CD36 mRNA expression in fat tissue at 10 mg/kg, po administered as single dose measured after 24 hrs by qRT-PCR analysis. The test is classed as functional, organism-based.
For test [5] the target is unchanged. In words: In vivo agonist activity at PPARgamma in RjOrl:Swiss CD-1 mouse assessed as induction of ADIPOQ mRNA expression in liver at 10 mg/kg, po administered as single dose measured after 8 hrs by qRT-PCR analysis. Format: functional, organism-based.
For test [6] the target is unchanged. In words: In vivo agonist activity at PPARgamma in RjOrl:Swiss CD-1 mouse assessed as induction of ADIPOQ mRNA expression in liver at 10 mg/kg, po administered as single dose measured after 24 hrs by qRT-PCR analysis. The test is classed as functional, organism-based.
Test [7] has as its target Luciferin 4-monooxygenase (Photinus pyralis) (UniProt P08659). Description: Activation of firefly luciferase expressed in HEK293T cells at 3 uM incubated for 14 to 16 hrs by reporter gene assay. The test is classed as cell-based. The settings on record: HEK-293T.
Test [8] has as its target Peroxisome proliferator-activated receptor gamma (Homo sapiens, UniProt P37231). In words: Agonist activity at recombinant human pFA-CMV fused PPARgamma LBD expressed in HEK293T cells transfected with pFR-luciferase plasmid and pRL-SV40 plasmid at 3 uM incubated for 14 to 16 hrs in presence of PPARgamma antagonist GW9662 by dual glo luciferase reporter gene assay. The test is classed as cell-based. The settings on record: HEK-293T.

For `O=C(O)Cc1cc(Br)c(Oc2cc(I)c(O)c(I)c2)c(I)c1`, the result in test [1], in test [2], in test [3], in test [4], in test [5] and in test [6] was Active.

Turning to `N[C@@H](Cc1cc(Br)c(Oc2cc(I)c(O)c(I)c2)c(I)c1)C(=O)O`, the outcome in test [1], in test [3] and in test [5] was inactive. Moreover, the result in test [2], in test [4] and in test [6] was Active.

In the case of `O=C(O)Cc1cc(I)c(Oc2ccc(O)c(I)c2)c(I)c1` [TIRATRICOL], the outcome in test [7] and in test [8] was inactive.
